Test results from US10640486B2, “Heteroarylcarboxamide derivatives as plasma kallikrein inhibitors” (Boehringer Ingelheim International GmbH, priority 2015, dated 2020).

Amino acid sequences for entries named in this document (tags omitted). Residues count along the entry.
UniProt P03952, 391-638 limits assumed: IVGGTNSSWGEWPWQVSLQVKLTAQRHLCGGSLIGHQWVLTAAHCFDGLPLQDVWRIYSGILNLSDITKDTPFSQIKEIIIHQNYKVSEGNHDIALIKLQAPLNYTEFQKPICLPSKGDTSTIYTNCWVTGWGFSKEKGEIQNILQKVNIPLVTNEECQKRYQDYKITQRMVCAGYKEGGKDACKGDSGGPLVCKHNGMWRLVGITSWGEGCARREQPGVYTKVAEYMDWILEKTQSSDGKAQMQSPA
UniProt P03952, 20-390 partner limits assumed: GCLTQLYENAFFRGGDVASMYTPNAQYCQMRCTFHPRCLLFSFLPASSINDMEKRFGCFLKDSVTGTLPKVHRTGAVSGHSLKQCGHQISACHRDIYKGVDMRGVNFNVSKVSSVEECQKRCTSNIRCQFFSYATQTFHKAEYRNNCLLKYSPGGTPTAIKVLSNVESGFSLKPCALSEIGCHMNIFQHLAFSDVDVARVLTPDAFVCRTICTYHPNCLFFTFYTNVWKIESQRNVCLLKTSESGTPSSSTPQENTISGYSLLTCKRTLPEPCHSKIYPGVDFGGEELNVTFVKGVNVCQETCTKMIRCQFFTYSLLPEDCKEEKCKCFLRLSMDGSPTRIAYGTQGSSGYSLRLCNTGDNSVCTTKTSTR

Biological target: human Plasma Kallikrein (KLKB1) (Homo sapiens (Human), UniProt P03952)
Assay: Inhibition of KLKB1 endpoint assay
Format: biochemical
Details: read-out: IC50 measurements for the inhibition of human Plasma Kallikrein (KLKB1), fluorogenic substrate H-Pro-Phe-Arg-AMC, 1 hr at Room Temperature
Procedure: The ability of compounds of Formula I to inhibit plasma kallikrein (KLKB1), Factor XIIa (FXIIa), Factor XIa (FXIa), Factor Xa (FXa), Factor IIa (alpha-thrombin; FIIa), plasmin, trypsin, tissue kallikrein 1 (KLK1), Factor VIIa (FVIIa), or FVIIa complexed with Tissue Factor, phospholipids and CaCl2 (FVIIa/TF/PL/CaCl2) was determined using the following biochemical assays in assay buffer (100 mM Tris, 150 mM NaCL, adjusted to a pH of 7.8 with HCl, and containing 0.1% (w/v) BSA and 0.05% (v/v) Tween20) in the presence of 1% (v/v) DMSO:
Evaluation of the Inhibition of KLKB1 Using an Endpoint Assay
Human KLKB1 (0.01 U/mL; Enzyme Research Laboratories) or rat KLKB1 (0.625 nM; produced in-house) was incubated for 1 hr at Room Temperature with 0.10 μM fluorogenic substrate H-Pro-Phe-Arg-AMC (11295 from Bachem) and various concentrations of the test compound in assay buffer. Subsequently, PPACK II (Calbiochem) was added as a stop solution to achieve a final concentration of 1 μM and fluorescence was measured using an Envision Reader (PerkinElmer) with the wavelength excitation setting of 355 nm and the wavelength emission setting of 460 nm.
The IC50 values were obtained with the aid of the inhibition of KLKB1 endpoint assay described above.

In the case of `Nc1nccc2c1CC[C@H]2NC(=O)c1cn(Cc2ccc(CN3CC4CCCN4C3=O)cc2)nc1C(F)(F)F` (stereo partly shown), the IC50 is reported as 4 nM.
